# Test: pH of the acid forming the acid component (pH meter, 20°C)
# Type: physicochemical
# Details: organic acid 1.0 g in purified water 1.0 L, inorganic acid 0.1-mol/L aqueous solution, for a salt, pH of the acid forming it
# Experimental: No particular limitation is imposed on the acidity of the acid forming the acid component (B), which is specifically the pH of the acid forming the acid component (B) at 20°C, is for example, 1 to 6. […] When the acid component (B) is an inorganic acid, the pH corresponds to a value measured by use of a […] aqueous solution. In the case of a metal salt of the acid, the pH corresponds to the pH of the acid forming the metal salt thereof.
# The pH of a liquid prepared by mixing an acid (1.0 g) and purified water (1.0 L) was measured at 20°C by means of a pH meter (product of HORIBA, Ltd.). In the case of an organic acid salt, the pH of the acid forming the salt was measured.
# The pH of a 0.1-mol/L aqueous solution of the acid employed was measured at 20°C in the same manner as employed above.
substance,measurement,value
tin bis(2-ethylhexanoate) [b-5],pH,3
